Details: additive alone dissolved at 2 g/l

Substance: C12/C14-fatty alcohol diethylene glycol ether sulfate
- foam volume after 12 min: 100 mL
